# scFv variants of Ab-14 (light chain) against a SARS-CoV-2 spike peptide

Data: MIT Lincoln Laboratory AlphaSeq set, Li et al. 2023, doi:10.1038/s41467-023-39022-2, as distributed in FLAb.

Binding partner: SARS-CoV-2 spike HR2 peptide, sequence PDVDLGDISGINAS.

Parent: Ab-14, a human scFv built as VH, a 15-residue (Gly4Ser)3 linker, VL. Only the CDRs of the light chain vary.
VH: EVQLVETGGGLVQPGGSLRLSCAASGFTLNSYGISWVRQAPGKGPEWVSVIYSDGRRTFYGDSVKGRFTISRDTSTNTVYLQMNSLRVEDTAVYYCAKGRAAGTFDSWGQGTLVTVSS
VL: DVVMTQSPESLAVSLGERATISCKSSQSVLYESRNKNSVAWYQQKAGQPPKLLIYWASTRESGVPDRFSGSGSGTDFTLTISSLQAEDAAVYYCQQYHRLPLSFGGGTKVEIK

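The variants were designed computationally from a first round of random CDR variants and then made and measured. Several design methods are mixed in this list. The scFvs were displayed on barcoded MATa yeast, the peptide on MATalpha yeast. Pairs that bind mate more often; barcode pairs of the diploids are counted by sequencing. Scores were corrected for input abundance and mapped to Kd with protein pairs of known affinity run in the same pool. Mating was done six times.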

The parent's light chain CDRs are KSSQSVLYESRNKNSVA, WASTRES, QQYHRLPLS; each variant's own CDRs replace them letter for letter.
Variants here have more than six changes.
Scale: log10 of Kd in nM, estimated from mating counts; low values are strong binders.
Replicates are averaged; those with no signal do not enter the mean.
Values of this round are not directly comparable with the first-round values of the same sequences.
The authors averaged sequences with at least three values out of six and counted those with two or fewer as poor binders.
Of ten entries with the parent sequence, four were seen in most replicates (averages 0.34 to 2.37), three in one and three in none, so single entries are noisy.
Background: pairings of all light chain designs with three empty control strains gave a value in 4% of cases (median 2.64, 5th percentile 1.59). Values in that range, when seen in few replicates, are hard to tell from nonspecific mating.

* KIEISNSVSLRGTRAIA, QGSTRAH, QQYHRLPLT = 1.34 (6 of 6 replicates)
* HMSQVTMYGYWNKNSVA, QTSTREE, QQYDRLPLS = 0.51 (6 of 6 replicates)
* FLTYAQDQTGLQGNAIA, QVNLKEN, QQYMRLPLA = 2.38 (1 of 6 replicates)
* MMSSLMGYESRHINNVA, QTSTREE, QQYDRLPLI = 1.00 (6 of 6 replicates)
* LVSQQELYEQRNKNSVA, SASQRLS, QQYHRLPLS = 0.54 (6 of 6 replicates)
* HITYGMQVMGRHSKSIA, QAEERAK, QQYDRLPLA = 0.90 (6 of 6 replicates)
* KISQMAWYESTWWNAIA, QTSEREE, QQYHRLPLS = 1.45 (5 of 6 replicates)
* KISMTVENQLKNRNSVA, ELVTRMA, QQYNRLPLS = 1.11 (6 of 6 replicates)
* KVDQEVDYQSRNKNSVA, DASQREE, QQYHRLPLS = -0.10 (6 of 6 replicates)
* KVSQLQDYESRNKNSVA, HASQREQ, QQYHRLPLS = -0.34 (6 of 6 replicates)
* KLQWQQYGENAMEAAIA, NEGTTHQ, QQYSMLPLT = 1.77 (2 of 6 replicates)
* KFGISKEGVTRTGKSIA, GAQTIDE, QQYARLPLA = 0.44 (6 of 6 replicates)
* MFSQTVMYESTMRNNVA, QTSTREE, QQYDRLPLS = 0.47 (6 of 6 replicates)
* KIYQGINTHMGAHSSIA, QEETRLQ, QQYAHLPLS = 1.51 (6 of 6 replicates)
* KIGMQVTYESTNKNAIA, QMTTREE, QQYHRLPLS = 0.01 (6 of 6 replicates)
* KVDISPHVQGMHKHGVA, EHDMRVS, QQYDRLPLA = 0.42 (6 of 6 replicates)
* TLTQVQGMESHNKDSVA, DLSTRGQ, QQYHRLPLS = 0.19 (6 of 6 replicates)
* KMSQSVDGLDRNKNSVA, QASTREM, QQYHRLPLS = -0.10 (6 of 6 replicates)
* MITAGLRGVGRNKNSVA, NAQTREE, QHYHRLPLS = 1.89 (5 of 6 replicates)
* NISQMIFMETHHVNNVA, QTSTREE, QDYHRLPLS = 2.24 (5 of 6 replicates)
* KLRESIHVEMKQKNNVA, DNSTRES, QDYHRLPLS = 2.44 (5 of 6 replicates)
* TLSDLMYMESRNVNSVA, DLVKREK, QQYHRLPLS = 0.26 (6 of 6 replicates)
* KISNMSTIESITHNSVA, QTSTRES, QQYDRLPLS = 0.82 (6 of 6 replicates)
* KLQQADLYESRNKNSVA, QASERES, QCYHRLPLS = 1.73 (5 of 6 replicates)
* TIGQTLMQGIRNRSNVA, EVSERLN, QQYDRLPLI = 1.23 (5 of 6 replicates)
* MISQLWNMGQFAINSVA, QAQIRNQ, QQYDRLPLA = 1.74 (5 of 6 replicates)
* MISQMYNMGQFAINSVA, QATERNE, QQYDRLPLI = 1.36 (2 of 6 replicates)
* KVSEFMKGLMMRKDSIA, DNNTRIN, QQYDRLPLS = 1.49 (6 of 6 replicates)
* SLSEMEAGWDAANKSIA, ASILMME, QQYHRLPLA = 2.16 (2 of 6 replicates)
* MIAQMMGWESNKIHSVA, QANLRED, QQYDRLPLE = 1.51 (6 of 6 replicates)
* MVQQLYNMGTFAINSVA, QASQRNA, QQYDRLPLI = 0.54 (6 of 6 replicates)
* KLGSSVAMTSRMKNNVA, DLNERER, QQYHRLPLS = 0.20 (6 of 6 replicates)
* ALGQSMDMTSRNVNSVA, DLTTREN, QQYHRLPLS = 0.14 (6 of 6 replicates)
* MMSYGWLYGSRNKRNVA, DRETRER, QQYDRLPLS = 0.64 (6 of 6 replicates)
* MISQLYNMGQFAINSVA, QASERYN, QQYDRLPLT = 0.77 (6 of 6 replicates)
* MISQLMNMGQFAINSVA, QASIRNQ, QQYDRLPLA = 0.98 (6 of 6 replicates)
* TLSDVMHMESRNVNSVA, DLVKRES, QQYHRLPLS = 0.44 (6 of 6 replicates)
* KLSQSMPYEQRNKNSVA, NASLREV, QCYHRLPLS = 0.01 (6 of 6 replicates)

The closing 6 entries, repeated:

* ALGQSMDMTSRNVNSVA, DLTTREN, QQYHRLPLS: 0.14 (6 of 6 replicates)
* MMSYGWLYGSRNKRNVA, DRETRER, QQYDRLPLS: 0.64 (6 of 6 replicates)
* MISQLYNMGQFAINSVA, QASERYN, QQYDRLPLT: 0.77 (6 of 6 replicates)
* MISQLMNMGQFAINSVA, QASIRNQ, QQYDRLPLA: 0.98 (6 of 6 replicates)
* TLSDVMHMESRNVNSVA, DLVKRES, QQYHRLPLS: 0.44 (6 of 6 replicates)
* KLSQSMPYEQRNKNSVA, NASLREV, QCYHRLPLS: 0.01 (6 of 6 replicates)